According to PubChem BioAssay AID687014 (The Scripps Research Institute Molecular Screening Center, 2013):
Only a part is listed here, and it is no random draw. The source made the active and inactive calls.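 The calls were made as follows: active = activation above a cutoff set at the mean of all screened compounds plus 3 SD (cut at about 10% in these data); inactive = the rest.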

What follows are compounds tested on Nuclear hormone receptor DAF-12 (Heterodera glycines), GAL4 fusion (assay: hgDAF-12 GAL4 fusion reporter activation – cell-based, luminescence, HEK293, UAS-luciferase, primary screen (AID 687014;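 also: 0% = DMSO wells and 100% = sodium butyrate wells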)). Details: HEK293 GAL4-hgDAF12 UAS-luciferase reporter, agonist luminescence; at 6.8 µM; stronger effect = higher value; normalized to butyrate control.

Compound | activation
COc1ccc(N/C(=N/P(=O)(N2CCOCC2)N2CCOCC2)N2CCOCC2)cc1 | inactive: 0.65%
Cc1c2c(nc3ccccc13)SC(C(Cl)Cl)C2 (centres undefined) | inactive: -1.85%
O=C(OC1CN2CCC1CC2)C12CC3CC(CC(C3)C1)C2 (centres undefined) | inactive: -0.05%
Cc1cc(=O)[nH]c(N[N+](=O)[O-])n1 | inactive: 0.67%
O=P1(N(CCCl)CCCl)Nc2ccccc2N1 | active: 16.1%
O=P1(N(CCCl)CCCl)OCCCN1CCCl (centres undefined) | inactive: 0.21%
COc1ccc2nc(NP(=O)(c3ccccc3)c3ccccc3)sc2c1 | inactive: 2.63%
COc1cc(I)ccc1[As](=O)(O)O | inactive: -0.11%
O=C(OC1CN2CCC1CC2)c1cccc([N+](=O)[O-])c1 (centres undefined) | inactive: 1.1%
CCOC(=O)c1ccc(NC(=O)C(C)(CCl)SC)cc1 (centres undefined) | inactive: 1.02%
CCC(C)N(CC(C)C)C(=S)SC(NC(C)=O)C(Cl)(Cl)Cl (centres undefined) | inactive: 1.85%
COP1(=S)c2c(C)nn(CCC#N)c2N=C(c2ccc(F)cc2)N1C (centres undefined) | inactive: -1.72%
COC(=O)C1(C)COP(=O)(N2CCCC2)OC1 (centres undefined) | inactive: 1.63%
O=C(O)C(=O)c1ccc(N(CCCl)CCCl)cc1 | inactive: 0.2%
O=C(COc1ccccc1)OC1CN2CCC1CC2 (centres undefined) | inactive: 3.37%
O=C(Nc1ccncc1[N+](=O)[O-])c1ccc([N+](=O)[O-])cc1[N+](=O)[O-] | inactive: 0.62%
CCOC(=O)Nc1cccc([As](=O)(O)O)c1 | inactive: 2.61%
Cc1cc(SC(NC=O)C(Cl)(Cl)Cl)ncn1 (centres undefined) | inactive: -1.1%
O=P(Nc1ccccn1)(c1cccc2ccccc12)c1cccc2ccccc12 | inactive: -0.03%
O=[N+]([O-])c1ccc(Nc2ccc(Oc3ccc([N+](=O)[O-])cc3[N+](=O)[O-])cc2)c([N+](=O)[O-])c1 | inactive: 0.44%
O=C(O)C(O)c1ccc(N(CCCl)CCCl)cc1 (centres undefined) | inactive: -1.45%
CCOC(=O)Nc1ccc([As](=O)(O)O)c(O)c1 | inactive: -0.08%
CC1CCNP(=O)(N(CCCl)CCCl)O1 (centres undefined) | inactive: 1.87%
COP(=O)(OC)N1CC1c1ccccc1 (centres undefined) | inactive: -2.11%
CCCCOc1ccc(C(=O)NCC2(N3CCCCC3)CCCCC2)cc1OC | inactive: 3.95%

Compound | activation
Cc1cc(SC(NC(=O)c2ccccc2)C(Cl)(Cl)Cl)nc(C(C)C)n1 (centres undefined) | inactive: -1.55%
Cc1ccc(S(=O)(=O)N(CCCN)CCCc2c(C)nc(N)[nH]c2=O)cc1 | inactive: 0.14%
O=P1(Nc2ncccn2)COc2ccccc2OC1 | inactive: -1.78%
Nc1cccc([As](=O)(O)c2ccccc2)c1 | inactive: -2.46%
NS(=O)(=O)c1cccc(NC(=O)COC(=O)C(O)(c2ccccc2)c2ccccc2)c1 | inactive: 1.97%
O=P1(Nc2ccc(Br)cn2)COc2ccccc2OC1 | inactive: 0.21%
Cc1ccc(OCC(=O)OC2CN3CCC2CC3)cc1 (centres undefined) | inactive: 0.36%
O=[As](O)(c1cccs1)c1cccs1 | inactive: -2.21%
Cc1nn(-c2ccccc2)c2c1P(=O)(N1CCOCC1)N(C)C(c1ccccc1)=N2 (centres undefined) | inactive: 2.48%
Cc1ccc(C(=O)OC2CN3CCC2CC3)cc1 (centres undefined) | inactive: 4.26%
CC1CCC(C(C)C)C(OP(=O)(Nc2ccccn2)c2ccccc2)C1 (centres undefined) | inactive: 0.98%
CN(C)C1(CNC(=O)c2ccc(S(C)(=O)=O)cc2)CCCCC1 | inactive: -2.25%
O=C(/C=C/c1ccccc1)OC1CN2CCC1CC2 (centres undefined) | inactive: 1.04%
CCCC1OP(=O)(Nc2ccccc2)OCC1CC (centres undefined) | inactive: 2.08%
COc1ccccc1CNC(=O)COC(=O)C(O)(c1ccccc1)c1ccccc1 | inactive: -1.15%
CN(C(=O)Cc1ccc(Cl)c(Cl)c1)[C@@H]1CCCC[C@H]1N1CCCC1 | inactive: -0.44%
CC(C)/C=N\N=C(\N)N[N+](=O)[O-] | inactive: 0.4%
CN(C(=O)Cc1ccc(Cl)c(Cl)c1)C1CCCC[C@@H]1N1CCCC1 (some centres undefined) | inactive: 0.61%
CC1(CBr)Cn2c(nc3ccccc3c2=O)S1 (centres undefined) | inactive: -1.1%
CCC1=CC2Cc3nc4ccc(Cl)cc4c(N)c3C(C1)C2 (centres undefined) | inactive: 4.16%
O=P1(Nc2ccccn2)COc2ccccc2OC1 | inactive: -2.81%
CCOP(=O)(NC(=NC(C)c1ccccc1)NC(C)c1ccccc1)OCC (centres undefined) | inactive: -0.12%
CN(CCCl)Cc1cc(Cl)c(NC2=NCCN2)c(Cl)c1 | inactive: 0.55%
CCOP(=O)(Nc1ccc(C)cn1)OCC | inactive: -0.19%
Clc1n[nH]nc1-c1nn[nH][15n]1 | inactive: 0.98%

Compound | activation
O=P1(N(CCCl)CCCl)NCCC(C(F)(F)F)O1 (centres undefined) | inactive: 1.75%
CC(C)(C)C(=O)NC(Sc1ncccn1)C(Cl)(Cl)Cl (centres undefined) | inactive: -2.13%
Cc1ccc(NCCc2c([N+](=O)[O-])cc([N+](=O)[O-])cc2[N+](=O)[O-])cc1 | inactive: 4.67%
Nc1cccc2c([As](=O)(O)O)cccc12 | inactive: -1.96%
CCCOP(=S)(Nc1nc(N)cc(=O)[nH]1)OCCC | inactive: -0.31%
COc1cc(C2NCCC3(OCCO3)C2(C)C)cc(OC)c1OC (centres undefined) | inactive: 1.69%
CCOP(=O)(Nc1cccc2ccccc12)OCC | inactive: 1.27%
O=C(OC1CN2CCC1CC2)c1ccc(Cl)cc1 (centres undefined) | inactive: -0.44%
COc1cc(C(=O)NCC2(N3CCOCC3)CCCCC2)cc(Cl)c1OC(C)C | inactive: -0.61%
O=[As](O)(O)c1cccnc1 | inactive: 0.63%
CS(=O)(=O)c1ccc(Cl)c(NC(=O)COC(=O)C(O)(c2ccccc2)c2ccccc2)c1 | inactive: -0.04%
O=[As](O)(c1cccc(O)c1)c1cccc(O)c1 | inactive: -1.42%
Cc1cccc(OCC(=O)OC2CN3CCC2CC3)c1 (centres undefined) | inactive: -2.05%
NC(=O)Nc1ccc([As](=O)(O)O)cc1 | inactive: 0.76%
N#CCCN(C(=O)COC(=O)C(O)(c1ccccc1)c1ccccc1)c1ccc(F)cc1 | inactive: 3.71%
CCOP1(=S)c2c(C)nn(CCC#N)c2N=C(c2ccc(F)cc2)N1C (centres undefined) | inactive: -0.92%
CN(C(=O)Cc1ccccc1)[C@@H]1CC[C@]2(CCCO2)C[C@H]1N1CCCC1 | inactive: 1.47%
CN(C)C(=O)c1cc([N+](=O)[O-])cc2c1-c1c(cc([N+](=O)[O-])cc1[N+](=O)[O-])C2=O | inactive: -2.03%
O=[N+]([O-])c1ccc2c(c1)nnn2O | inactive: -0.47%
CN(C(=O)Cc1ccc(Cl)c(Cl)c1)[C@H]1CC[C@@]2(CCCO2)C[C@@H]1N1CCCC1 | inactive: 3.89%
CCOP1(=S)c2c(C)nn(CCC#N)c2N=C(c2ccccc2F)N1C (centres undefined) | inactive: -0.03%
O=P(Nc1nccs1)(Oc1ccccc1)Oc1ccccc1 | inactive: 0.1%
O=C(O)COc1ccc([As](=O)(O)O)cc1[N+](=O)[O-] | inactive: -1.82%
Nc1ccccc1[As](=O)(O)c1ccccc1 | inactive: 1.97%
